Results published in paper PMC9463526, “Simultaneous determination of LY3214996, abemaciclib, and M2 and M20 metabolites in human plasma, cerebrospinal fluid, and brain tumor by LC-MS/MS” (Journal of Pharmaceutical Analysis, 2022).

Assay: Analyte stability in brain homogenate
Type: physicochemical, human
Details: 39 days
Method: The stability of the analytes was studied under various storage and processing conditions. […] Short- and long-term stability studies of all analytes were conducted in human blank plasma and brain homogenate under several storage conditions. Analyte stability in biological matrices was analyzed using freshly prepared calibration standards and QC samples. The percentage difference between the stability and freshly processed QC was also assessed. Re-injection reproducibility was evaluated within the sample stability period in the autosampler. Analytes were considered stable if the accuracy at each level was ±15.0% of the nominal value. Additionally, the difference from corresponding comparison QC samples must be within ±15.0%.

## CCN1CCN(Cc2ccc(Nc3ncc(F)c(-c4cc(F)c5nc(C)n(C(C)C)c5c4)n3)nc2)CC1 [Abemaciclib]
HQC 400.0 nM
  Long-term stability (−20 °C), Accuracy: 108.7%
LQC 0.6 nM
  Long-term stability (−20 °C), Accuracy: 103.1%
